Reference: PubChem BioAssay AID493160 (Sanford-Burnham Center for Chemical Genomics, 2011)
The list shows a part of the results, in another mix than the full data. Some results for these compounds are left out of this collection, so the calls shown say nothing about other tests. Calls of active or inactive are those of the source.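 Rule for the calls: active = inhibition above about 35% when tested at 20 µM (limit read from the data); inactive = the rest.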

Amino acid sequences for entries named in this document (tags omitted).
UniProt Q2TB90, whole entry: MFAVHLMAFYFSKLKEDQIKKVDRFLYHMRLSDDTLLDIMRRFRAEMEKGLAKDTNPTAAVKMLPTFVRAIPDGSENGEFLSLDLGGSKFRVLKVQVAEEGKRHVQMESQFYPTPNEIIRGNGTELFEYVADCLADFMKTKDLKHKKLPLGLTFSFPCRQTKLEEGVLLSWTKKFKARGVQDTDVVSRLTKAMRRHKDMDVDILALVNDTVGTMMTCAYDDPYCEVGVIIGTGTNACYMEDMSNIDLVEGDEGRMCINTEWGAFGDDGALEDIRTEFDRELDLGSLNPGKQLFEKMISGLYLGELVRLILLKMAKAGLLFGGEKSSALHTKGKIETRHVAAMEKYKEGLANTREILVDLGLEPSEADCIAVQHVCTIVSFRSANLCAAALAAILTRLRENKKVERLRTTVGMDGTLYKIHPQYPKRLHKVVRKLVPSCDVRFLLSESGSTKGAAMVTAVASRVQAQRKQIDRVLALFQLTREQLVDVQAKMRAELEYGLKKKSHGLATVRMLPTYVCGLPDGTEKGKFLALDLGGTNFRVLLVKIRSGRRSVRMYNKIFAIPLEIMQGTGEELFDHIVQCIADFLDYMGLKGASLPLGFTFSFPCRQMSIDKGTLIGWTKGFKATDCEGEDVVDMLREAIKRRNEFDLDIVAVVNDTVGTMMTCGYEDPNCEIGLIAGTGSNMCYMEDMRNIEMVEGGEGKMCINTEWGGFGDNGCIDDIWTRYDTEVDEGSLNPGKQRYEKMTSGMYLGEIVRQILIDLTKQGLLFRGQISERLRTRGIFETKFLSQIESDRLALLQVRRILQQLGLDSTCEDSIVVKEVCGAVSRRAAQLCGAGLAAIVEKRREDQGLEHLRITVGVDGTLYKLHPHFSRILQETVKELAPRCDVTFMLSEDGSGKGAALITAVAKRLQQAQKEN

Target: Hexokinase HKDC1 (Homo sapiens) (UniProt Q2TB90)
Experiment: blockers of human HKDC1 enzyme activity – biochemical, fluorescence, uHTS, primary screen (AID 493160);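 note: plate controls were DMSO wells with enzyme for no effect and DMSO wells lacking enzyme for full effect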
Conditions: recombinant HKDC1, G6PDH/diaphorase resazurin coupled fluorescence; at 20 µM; hits give high values
How it was run: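 Test system: HK5 enzyme. Quantity: 5 µg/mL HK5 final. Reagent: glucose and ATP substrates. Schedule: 90 min reaction incubation at room temperature, dark. Technique: resazurin-to-resorufin fluorescence via G6PDH and diaphorase coupling, 525/613 nm. Control set: DMSO wells with and without enzyme mix.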

| Structure (SMILES) | inhibition |
| --- | --- |
| Cc1ccc(C(=O)NCC2(N3CCCCC3)CCCCC2)cc1 | inactive: -6.21% |
| CC(C)N1C(=O)CC2(CCN(CCOC(=O)C(O)(c3ccccc3)c3ccccc3)CC2)C1=O | inactive: 6.12% |
| CCN(CC)CC(C)C(C)OC(=O)C(O)(c1ccccc1)c1ccccc1 (stereo not given) | inactive: -9.27% |
| COc1cc(SC)ccc1C(=O)NCC1(N(C)C)CCCCC1 | inactive: 1.98% |
| CN1[C@@H]2CC[C@H]1CC(OC(=O)C(O)(c1ccccc1)c1ccccc1)C2 (stereo not given in full) | inactive: -3.01% |
| O=C(NCC1(N2CCCCC2)CCCCC1)c1cc([N+](=O)[O-])ccc1Cl | inactive: -4.11% |
| CCN1CCCC(OC(=O)C2(O)c3ccccc3C=Cc3ccccc32)C1 (stereo not given) | inactive: -5.9% |
| Cc1cc(C(=O)NCC2(N3CCCCC3)CCCCC2)ccc1[N+](=O)[O-] | inactive: -6.86% |
| O=C(NCC1(N2CCCCC2)CCCCC1)c1cccc(Br)c1 | inactive: 0.88% |
| COc1ccc(C(=O)NCC2(N(C)C)CCCCC2)cc1 | inactive: -4.91% |
| C=CCN1CCN(CCOC(=O)C(O)(c2ccccc2)c2ccccc2)CC1 | inactive: 13.8% |
| O=C(NCC1(N2CCCCC2)CCCCC1)c1cc(F)c(F)cc1Cl | inactive: -3.55% |
| Cc1ccccc1C(=O)NCC1(N2CCCCC2)CCCCC1 | inactive: -9.51% |
| CN(C)c1ccc(C(=O)NCC2(N(C)C)CCCCC2)cc1 | inactive: 0.89% |
| CN(C)C1CCCC1OC(=O)C(O)(c1ccccc1)c1ccccc1 (stereo not given) | inactive: -10.9% |
| O=C(NCC1(N2CCCCC2)CCCCC1)c1cccc(Cl)c1 | inactive: 1.01% |
| COc1cccc(C(=O)NCC2(N3CCCCC3)CCCCC2)c1 | inactive: -6.25% |
| COc1ccc(Cl)cc1C(=O)NCC1(N(C)C)CCCCC1 | inactive: -3.32% |
| COc1cc(C(=O)NCC2(N(C)C)CCCCC2)c([N+](=O)[O-])cc1OC | inactive: -0.73% |
| CN(C)C1(CNC(=O)c2ccc(Br)cc2)CCCCC1 | inactive: -4.9% |
| CN(C)c1cccc(C(=O)NCC2(N(C)C)CCCCC2)c1 | inactive: -4.35% |
| CC(C)Oc1ccc(C(=O)NCC2(N(C)C)CCCCC2)cc1 | inactive: -4.33% |
| O=C(OCCN1CCCC1)C(O)(c1ccccc1)c1ccccc1 | inactive: -9.5% |
| COc1ccc(Br)c(C(=O)NCC2(N3CCCCC3)CCCCC2)c1 | inactive: -4.24% |
| O=C(OC1CN2CCC1CC2)C(CO)(c1ccccc1)c1ccccc1 (stereo not given) | inactive: 6.93% |
